Assay results: patent US20090299063A1, “Inhibitors for Extracellular Signal-Regulated Kinase Docking Domains and Uses Therefor” (priority 2005, published 2009)

What was measured:
[1] = system: HeLa cells; experiment: Colony formation assay, HeLa cells
[2] = system: A549 lung carcinoma cells; experiment: Colony formation assay, A549 cells
[3] = system: HT1080 fibrosarcoma cells; experiment: Cell proliferation, HT1080 cells
[4] = system: MDA-MB-468 cells; experiment: Cell proliferation, MDA-MB-468 cells

Measured: IC50 of cell proliferation (in words)

O=C(CSc1nc2ccccc2o1)Nc1ccc(-n2cnnn2)cc1
IC50 values similar to 76 and 81: all assays above
